Results on 1 molecule are retold here after patent publication US20230174938A1, “METHODS AND COMPOSITIONS FOR GENERATING HUMAN ERYTHROID PROGENITOR CELLS” (Trailhead Biosystems Inc., priority 2021, published 2023).

What all share (format): cell-based, human
Test [1] deals with CD34+ population of cells isolated from cord blood. In words: HD-DoE 8-factor experiment optimized for maximum expression of GATA1 (stage 1). Conditions: 8-factor model optimized for maximum GATA1 expression; 3-day treatment. From the text:
This example utilizes a method of High-Dimensional Design of Experiments (HD-DoE), as previously described in Bukys et al. (2020) Iscience 23:101346. The method employs computerized design geometries to simultaneously test multiple process inputs and offers mathematical modeling of a deep effector/response space. The method allows for finding combinatorial signaling inputs that control a complex process, such as during cell differentiation. It allows testing of multiple plausible critical process parameters, as such parameters impact output responses, such as gene expression. Because gene expression provides hallmark features of the phenotype of, for example, a human cell, the method can be applied to identify, and understand, which signaling pathways control cell fate. […]
To test the effectors, experiments with at least 8 factors were designed that can assess the response of cells to different combinations of effectors in a range of concentrations. […] The impact of each effector on gene expression level is defined by a parameter called factor contribution that is calculated for each effector during the modeling. […]
To identify the recipe of stage 1 of differentiation, cells were grown for 3 days in media containing stem cell factor (SCF). […] Three days later RNA extraction was performed and gene expression was obtained using quantitative PCR analysis. […]

In test [2] the test system is MEP progenitor from CD34+ HSCs. In words: Factor criticality analysis (dynamic profile), stage 1 recipe. More on the design: GATA1 expression / TFRC expression: unit not given here. Here is the method: To assess the impact of the elimination of each validated factor identified for the stage 1 and 2 recipes as described in Example 1, dynamic profile analysis was used and compared the expression level of genes of interest in absence of each finalized factor while others are present.
In the stage 1 recipe, each of the five finalized factors was removed while the other four factors remained present and the expression levels of GATA2, GATA1, CD36 and TFRC were assessed compared to the presence of all five factors. When IL-3 was removed, the values of GATA1 expression decreased from 510 to 240, the values of CD36 expression changed from 260 to 70, the values of GATA2 expression decreased from 2200 to 1400 and the values of TFRC expression dropped from 960 to 580. All changes represent a significant loss of expression of a desired gene for the MEP progenitor.

Another test deals with CD34 cells. Kind of test: HD-DoE 6-factor experiment optimized for maximum expression of GATA1. The note with it: 6-factor model optimized for maximum GATA1 expression; SCF 5 ng/mL in all wells. Here is the method: To test whether EPO or other commonly used cytokines are required for GATA1 induction, we conducted experiments with 6 factors in a range of concentrations. On this experiment CD34 cells were thawed and kept overnight in media containing SCF 10 ng/mL. On the next day, 48 different combinations of effectors were added to the cells, and SCF 5 ng/mL was kept in all the wells. Optimizing for maximal expression of the GATA1 key regulatory gene led to a robust solution. At this solution, other genes expressed in megakaryocytes and erythrocytes, such as ITGA2b, ZFPM1, KLF1 and EPOR were also predicted to be abundantly expressed. This model was derived from initial testing of IL6, IL3, SCF, EPO, Activin A and IGFII.

The mark [3] stands for this setting: named factor removed, other four present.

B1: IL-3: IL3R agonist, interleukin-3 (protein, UniProt P08700 20-152, looked up)
Interleukin-3: APMTQTTPLKTSWVNCSNMIDEIITHLKQPPLPLLDFNNLNGEDQDILMENNLRRPNLEAFNRAVKSLQNASAIESILKNLLPCLPLATAAPTRHPIHIKDGDWNEFRRKLTFYLKTLENAQAQQTTLSLAIF
In the case of B1, in test [1], the factor contribution was determined as 41. In test [2] (all five factors present), this molecule yielded a CD36 expression of 260, a GATA1 expression of 510, a GATA2 expression of 2200 and a TFRC expression of 960. Besides, in test [2] (setting [3]), the CD36 expression was 70, the GATA1 expression came to 240, the GATA2 expression is reported as 1400 and the TFRC expression amounted to 580. The factor contribution with CD34 cells is on record as 31.
